{
  "source": "patent US8003342",
  "molecular_target": "recombinant wild type human p21^H-ras protein (UniProt P01112)",
  "data": [
    {"substance": "rat brain farnesyl:protein transferase", "values": [
      {"measurement": "half-maximal concentration for p21^H-ras (substrate saturation of farnesyl transfer)", "result": "The half-maximal concentration for p21^H-ras was approximately 5 µM"}
    ]}
  ]
}
